According to PubChem BioAssay AID2174 (The Scripps Research Institute Molecular Screening Center, 2009):
The list shows a part of the results, in another mix than the full data. Some tests of the compounds listed are not included; inactive here does not mean inactive elsewhere. Active and inactive are the calls of the source.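 Rule for the calls: active = inhibition above the mean of all tested compounds plus 3 SD, set per campaign (cut at about 14% in these data); inactive = the rest.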

By UniProt entry, the sequences of proteins in these tests, tags left out.
UniProt O75608, whole entry: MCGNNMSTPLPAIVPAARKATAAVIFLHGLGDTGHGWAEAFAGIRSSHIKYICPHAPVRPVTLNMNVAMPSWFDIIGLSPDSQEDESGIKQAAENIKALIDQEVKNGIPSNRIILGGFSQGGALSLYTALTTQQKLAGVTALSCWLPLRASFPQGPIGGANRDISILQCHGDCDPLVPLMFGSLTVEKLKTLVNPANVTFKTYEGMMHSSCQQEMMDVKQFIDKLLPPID

Biological target: Acyl-protein thioesterase 1 (Homo sapiens) (UniProt O75608)
Assay: LYPLA1 inhibitors, primary screen, counter-screen for PME1 inhibitor project, biochemical, fluorescence polarization, FP-Rh probe ABPP (AID 2174);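 note: inhibitors block serine hydrolase probe labeling of LYPLA1 so polarization falls; 0% = enzyme with DMSO and 100% = wells lacking LYPLA1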
Conditions: recombinant LYPLA1, FP-Rh probe fluorescence polarization; at 5.9 µM; hits give high values

Row | SMILES | inhibition
1 | O=C(OC1CN2CCC1CC2)C(CO)(c1ccccc1)c1ccccc1 (centres undefined) | inactive: -2.91%
2 | COc1ccc(Br)c(C(=O)NCC2(N3CCCCC3)CCCCC2)c1 | inactive: 1.95%
3 | CN(C)c1cccc(C(=O)NCC2(N(C)C)CCCCC2)c1 | inactive: 0.37%
4 | CC(C)Oc1ccc(C(=O)NCC2(N(C)C)CCCCC2)cc1 | inactive: -1.7%
5 | CN(C)C1(CNC(=O)c2ccc(Br)cc2)CCCCC1 | inactive: 2.37%
6 | COc1cc(C(=O)NCC2(N(C)C)CCCCC2)c([N+](=O)[O-])cc1OC | inactive: -1.98%
7 | COc1ccc(Cl)cc1C(=O)NCC1(N(C)C)CCCCC1 | inactive: 0.65%
8 | COc1cccc(C(=O)NCC2(N3CCCCC3)CCCCC2)c1 | inactive: 0.23%
9 | O=C(NCC1(N2CCCCC2)CCCCC1)c1cccc(Cl)c1 | inactive: -2.55%
10 | CN(C)C1CCCC1OC(=O)C(O)(c1ccccc1)c1ccccc1 (centres undefined) | inactive: -1.8%
11 | CN(C)c1ccc(C(=O)NCC2(N(C)C)CCCCC2)cc1 | inactive: -0.85%
12 | Cc1ccccc1C(=O)NCC1(N2CCCCC2)CCCCC1 | inactive: -4.93%
13 | O=C(NCC1(N2CCCCC2)CCCCC1)c1cc(F)c(F)cc1Cl | inactive: 0.29%
14 | C=CCN1CCN(CCOC(=O)C(O)(c2ccccc2)c2ccccc2)CC1 | inactive: 0.22%
15 | O=C(NCC1(N2CCCCC2)CCCCC1)c1cccc(Br)c1 | inactive: 0.99%
16 | Cc1cc(C(=O)NCC2(N3CCCCC3)CCCCC2)ccc1[N+](=O)[O-] | inactive: 2.48%
17 | CCN1CCCC(OC(=O)C2(O)c3ccccc3C=Cc3ccccc32)C1 (centres undefined) | inactive: -0.99%
18 | COc1ccc(C(=O)NCC2(N(C)C)CCCCC2)cc1 | inactive: -1.03%
19 | O=C(NCC1(N2CCCCC2)CCCCC1)c1cc([N+](=O)[O-])ccc1Cl | inactive: 5.4%
20 | CN1[C@@H]2CC[C@H]1CC(OC(=O)C(O)(c1ccccc1)c1ccccc1)C2 (some centres undefined) | inactive: -0.09%
21 | CC(C)N1C(=O)CC2(CCN(CCOC(=O)C(O)(c3ccccc3)c3ccccc3)CC2)C1=O | inactive: 1.21%
22 | COc1cc(SC)ccc1C(=O)NCC1(N(C)C)CCCCC1 | inactive: 0.64%
23 | CCN(CC)CC(C)C(C)OC(=O)C(O)(c1ccccc1)c1ccccc1 (centres undefined) | inactive: 4.21%
24 | Cc1ccc(C(=O)NCC2(N3CCCCC3)CCCCC2)cc1 | inactive: -1.25%
